Amino acid sequences for entries named in this document (tags omitted). Residues count along the entry.
UniProt P28335, 33-458 limits assumed: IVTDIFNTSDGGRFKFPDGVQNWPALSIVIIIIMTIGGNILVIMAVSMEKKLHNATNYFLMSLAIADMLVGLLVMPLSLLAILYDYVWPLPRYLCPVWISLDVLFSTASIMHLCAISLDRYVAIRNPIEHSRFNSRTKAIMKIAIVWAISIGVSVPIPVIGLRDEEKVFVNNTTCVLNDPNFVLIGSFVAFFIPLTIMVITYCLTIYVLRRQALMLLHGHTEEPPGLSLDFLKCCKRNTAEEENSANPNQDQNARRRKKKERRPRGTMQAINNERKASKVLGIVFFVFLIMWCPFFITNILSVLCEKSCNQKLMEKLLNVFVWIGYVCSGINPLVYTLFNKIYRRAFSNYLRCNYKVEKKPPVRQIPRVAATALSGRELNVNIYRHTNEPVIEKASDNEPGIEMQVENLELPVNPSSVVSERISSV
UniProt P28223, whole entry: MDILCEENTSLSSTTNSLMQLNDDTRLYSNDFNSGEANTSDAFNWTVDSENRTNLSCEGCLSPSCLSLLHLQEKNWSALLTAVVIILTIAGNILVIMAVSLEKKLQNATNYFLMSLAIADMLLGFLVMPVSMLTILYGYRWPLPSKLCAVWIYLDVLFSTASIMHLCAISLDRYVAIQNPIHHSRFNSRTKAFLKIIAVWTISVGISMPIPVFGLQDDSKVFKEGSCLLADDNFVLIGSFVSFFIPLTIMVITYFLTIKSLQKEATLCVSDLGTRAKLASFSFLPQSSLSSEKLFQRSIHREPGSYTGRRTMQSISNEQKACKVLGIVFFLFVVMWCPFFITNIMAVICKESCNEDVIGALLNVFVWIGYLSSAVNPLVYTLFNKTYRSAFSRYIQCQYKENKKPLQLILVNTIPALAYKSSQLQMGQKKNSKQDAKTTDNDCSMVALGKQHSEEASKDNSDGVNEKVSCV
UniProt P41595, whole entry: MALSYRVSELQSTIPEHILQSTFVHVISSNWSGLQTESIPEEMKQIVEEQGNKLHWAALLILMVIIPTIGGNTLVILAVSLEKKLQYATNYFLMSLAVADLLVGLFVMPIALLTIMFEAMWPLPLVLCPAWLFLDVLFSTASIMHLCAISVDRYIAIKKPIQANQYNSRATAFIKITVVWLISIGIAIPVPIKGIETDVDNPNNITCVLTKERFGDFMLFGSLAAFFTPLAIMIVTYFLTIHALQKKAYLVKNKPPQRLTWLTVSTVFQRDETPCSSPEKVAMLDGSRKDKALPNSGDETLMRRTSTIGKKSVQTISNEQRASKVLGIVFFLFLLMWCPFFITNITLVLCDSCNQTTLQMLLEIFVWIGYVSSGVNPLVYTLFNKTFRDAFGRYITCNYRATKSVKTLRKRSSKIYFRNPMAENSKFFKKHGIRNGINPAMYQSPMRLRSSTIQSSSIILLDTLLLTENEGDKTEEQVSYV

In US6706750B1, “Indole derivatives process for their preparation, pharmaceutical compositions containing them and their medicinal application” (priority 1999, dated 2004):

Assays:
[1] = molecular target: h5-HT2C (Homo sapiens, UniProt P28335); experiment: Functional activity, FLIPR calcium assay in CHO cells expressing h5-HT2C; conditions: tested form: HCl
Method: (§1) The functional activity of compounds of formula (I) was assayed using a Fluorimetric Imaging Plate reader (FLIPR) in the following manner.
(§2) CHO cells expressing either the h5-HT2C or h5-HT2A receptors were counted and plated into standard 96 well microtitre plates before the day of testing to give a confluent monolayer. The following day the cells were dye loaded with the calcium sensitive dye Fluo 3-AM by incubation with serum free culture maintenance media containing pluronic acid and Fluo 3-AM dissolved in DMSO at 37° C. in a CO2 incubator at 95% humidity for approximately 90 minutes. Unincorporated dye was removed by washing with Hanks balanced salt solution containing 20 mM HEPES and 2.5 mM probenecid (the assay buffer) using an automated cell washer to leave a total volume of 100 μL/well.
(§3) The drug (dissolved in 50 μL of assay buffer) was added at a rate of 70 μL/sec to each well of the FLIPR 96 well plate during fluorescence measurements. The measurements are taken at 1 sec intervals and the maximum fluorescent signal was measured (approx 10-15 secs after drug addition) and compared with the response produced by 10 μM 5-HT (defined as 100%) to which it is expressed as a percentage response (relative efficacy). Dose response curves were constructed using Graphpad Prism (Graph Software Inc.).

[2] = molecular target: h5-HT2A receptors (Homo sapiens, UniProt P28223); experiment: Functional activity, FLIPR calcium assay in CHO cells expressing h5-HT2A; conditions: maximum fluorescent signal compared with 10 μM 5-HT (defined as 100%); tested form: HCl
Method: as §1, §2, §3

[3] = molecular target: 5-HT2C receptor (Homo sapiens, UniProt P28335); experiment: Radioligand binding to the 5-HT2C receptor ([3H]-5-HT, CHO cell line); conditions: read-out: Ki(2C), tested form: HCl
Method: (§4) 1. Binding to Serotonin Receptors
(§5) The binding of compounds of formula (I) to serotonin receptors was determined in vitro by standard methods. The preparations were investigated in accordance with the assays given hereinafter.
Method (a): For the binding to the 5-HT2C receptor the 5-HT2C receptors were radiolabelled with [^3H]-5-HT. The affinity of the compounds for 5-HT2C receptors in a CHO cell line was determined according to the procedure of D. Hoyer, G. Engel and H.O. Kalkman, European J. Pharmacol., 1985, 118, 13-23.

[4] = molecular target: human 5-HT2B receptors (Homo sapiens, UniProt P41595); experiment: Radioligand binding to the 5-HT2B receptor ([3H]-5-HT, CHO cell line); conditions: read-out: Ki(2B), tested form: HCl
Method: as §4, §5
Method (b): For the binding to the 5-HT2B receptor the 5-HT2B receptors were radiolabelled with [^3H]-5-HT. The affinity of the compounds for human 5-HT2B receptors in a CHO cell line was determined according to the procedure of K. Schmuck, C. Ullmer, P. Engels and H. Lubbert, FEBS Lett., 1994, 342, 85-90.

[5] = molecular target: 5-HT2A receptor (Homo sapiens, UniProt P28223); experiment: Radioligand binding to the 5-HT2A receptor ([125I]-DOI, CHO cell line); conditions: read-out: Ki(2A), tested form: HCl
Method: as §4, §5
Method (c): For the binding to the 5-HT2A receptor the 5-HT2A receptors were radiolabelled with [^125I]-DOI. The affinity of the compounds for 5-HT2A receptors in a CHO cell line was determined according to the procedure of D. J. McKenna and S. J. Peroutka, J. Neurosci., 1989, 9/10, 3482-90.

| SMILES | h5-HT2C Relative Efficacy ([1]; maximum fluorescent signal compared with 10 μM 5-HT (defined as 100%)) [%] | EC50 ([1]; read-out: h5-HT2C EC50, FLIPR, CHO cells) [nM] | h5-HT2A Relative Efficacy [2] [%] | Ki [3] [nM] | Ki [4] [nM] | Ki [5] [nM] |
| --- | --- | --- | --- | --- | --- | --- |
| C[C@H](N)Cn1c2ccsc2c2c(Cl)cc(Cl)cc21 | 93 | 1730 | 0 |  |  |  |
| C[C@H](N)Cn1c2ccccc2c2sccc21 |  |  |  | 27 | 58 | 106 |
